Measured values from US20140193824A1, “High-Resolution Clonal Typing of Escherichia coli” (priority 2013, published 2014).

System: clinical E. coli isolates

For trimethoprim-sulfamethoxazole [T/S], the “Resistance among rejected isolates” value (Children's Hospital, Seattle) was 58.7%, the “Resistance among rejected isolates” value (Harborview Med. Center, Seattle) was 58.3% and the “Resistance among rejected isolates” value (Univ. of Münster, Münster) was 46.6%. For the same substance, the “Resistance among rejected isolates” value (VA Med. Center, Minneapolis) was 51.9%.

Where two headings read alike, the source gives them in different places.
